Measured values reported in US7754723B2.

Amino acid sequences for entries named in this document (tags omitted).
UniProt Q8NER1, whole entry: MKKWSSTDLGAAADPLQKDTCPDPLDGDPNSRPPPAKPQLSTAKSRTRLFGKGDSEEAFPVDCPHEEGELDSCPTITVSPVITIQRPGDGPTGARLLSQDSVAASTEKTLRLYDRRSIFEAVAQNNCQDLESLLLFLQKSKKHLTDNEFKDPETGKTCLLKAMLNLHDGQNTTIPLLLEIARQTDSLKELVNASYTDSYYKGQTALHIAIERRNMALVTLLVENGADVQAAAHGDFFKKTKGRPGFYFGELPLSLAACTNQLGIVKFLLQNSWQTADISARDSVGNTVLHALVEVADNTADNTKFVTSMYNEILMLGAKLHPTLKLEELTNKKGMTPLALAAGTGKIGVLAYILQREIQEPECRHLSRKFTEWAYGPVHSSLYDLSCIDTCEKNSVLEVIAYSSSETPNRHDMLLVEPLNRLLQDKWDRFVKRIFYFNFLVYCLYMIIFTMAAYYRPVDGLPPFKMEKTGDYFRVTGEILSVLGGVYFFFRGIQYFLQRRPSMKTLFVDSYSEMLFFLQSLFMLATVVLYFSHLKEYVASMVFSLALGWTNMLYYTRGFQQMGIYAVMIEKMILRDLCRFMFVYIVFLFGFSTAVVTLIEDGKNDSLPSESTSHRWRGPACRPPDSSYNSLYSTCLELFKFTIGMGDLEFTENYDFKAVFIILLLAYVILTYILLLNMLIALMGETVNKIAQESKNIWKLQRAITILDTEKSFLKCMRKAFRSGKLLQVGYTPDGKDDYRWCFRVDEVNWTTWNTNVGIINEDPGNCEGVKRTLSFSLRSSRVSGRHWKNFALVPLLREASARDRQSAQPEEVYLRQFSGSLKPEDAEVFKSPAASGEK

Key:
human VR1 [1] = biological target: T1, human VR1 (Homo sapiens, UniProt Q8NER1); test: pH-based assay of VR1 inhibition (FLIPR calcium influx, HEK293-EcR cells expressing human VR1); details: activation at pH 5.5, HEK293-EcR cells expressing human VR1, n=4
Procedure: (§1) Human VR1 Cloning: Human spinal cord RNA (commercially available from Clontech, Palo Alto, Calif.) was used. Reverse transcription was conducted on 1.0 μg total RNA using Thermoscript Reverse Transcriptase (commercially available from Invitrogen) and oligo dT primers as detailed in its product description. Reverse transcription reactions were incubated at 55° C. for 1 h, heat-inactivated at 85° C. for 5 min, and RNase H-treated at 37° C. for 20 min.
(§2) Human VR1 cDNA sequence was obtained by comparison of the human genomic sequence, prior to annotation, to the published rat sequence. Intron sequences were removed and flanking exonic sequences were joined to generate the hypothetical human cDNA. Primers flanking the coding region of human VR1 were designed as follows: forward primer, […]; and reverse primer, […]. […]
(§3) Generation of Inducible Cell Lines: Unless noted otherwise, cell culture reagents were purchased from Life Technologies of Rockville, Md. […] On the day of assay, cells were loaded with Fluo-4 (a calcium-sensitive dye that is commercially available from Molecular Probes) and CAP-mediated calcium influx was measured using a FLIPR as described below. […]

human VR1 [2] = biological target: T1, human VR1; test: Capsaicin-based assay of VR1 inhibition (FLIPR calcium influx, HEK293-EcR cells expressing human VR1); details: activation by capsaicin (400 nM), HEK293-EcR cells expressing human VR1, n=3
Procedure: as §1, §2, §3

pIC50 (human VR1 [1]): 6.54 | pIC50 (human VR1 [2]): 7.04
Structure (SMILES): CC(C)(C)c1ccc(NC(=C[N+](=O)[O-])N2CCN(c3ncccc3Cl)CC2)cc1

pIC50: −log10 of the molar value.
